Results: US12331032B2, “Quinone reductase 2 inhibitor compounds and uses thereof” (DUKE UNIVERSITY, priority 2018, dated 2025)
“And” between values parts separate entries of the source, which are not always exact repeats. Equal entries are not always repeated.

Columns and labels:
in vivo = settings: mouse, po, 25 mg/kg; for concentration at 0.5 h: 0.500 hr

With `COc1ccc2c(NCc3cccnc3)ccnc2c1` [QR2I-44, 7-methoxy-4-(pyridin-3-yl) methylaminoquinoline] the “Concentrations in Mouse Brain Homogenate, individual animals” value (PO 25 mg/kg, 6.00 hr, Rep # 1-6 (animals 7-12), BQL = <5.00 ng/mL, 25 mg/kg) was “BQL (Below the quantitation limit (<5.00 ng/mL)) (4×) and 5.08 ng/mL”, the “absorption and brain penetration” value (mice, IV, IP and PO) was “well absorbed and to be brain penetrant” and the concentration at 0.5 h (in vivo; brain homogenate, Concentrations in Mouse Brain Homogenate, Mean) was 559 ng/mL. It also gave a concentration at 6 h (in vivo; brain homogenate, Concentrations in Mouse Brain Homogenate, Mean, 6.00 hr (mean of quantifiable samples)) of 5.25 ng/mL, a concentration at 6 h (in vivo; brain homogenate, Concentrations in Mouse Brain Homogenate, individual animals, 6.00 hr, Rep # 1-6 (animals 7-12), BQL = <5.00 ng/mL) of 5.42 ng/mL and a concentration at 0.5 h (in vivo; plasma, Concentrations in Mouse Plasma, Mean) of 856 ng/mL. The concentration at 6 h (in vivo; plasma, Concentrations in Mouse Plasma, Mean, 6.00 hr) was 13 ng/mL.
